Test results taken from BindingDB's records for 2993614 (1985).

Amino acid sequences for entries named in this document (tags omitted).
UniProt P07861, whole entry, looked up: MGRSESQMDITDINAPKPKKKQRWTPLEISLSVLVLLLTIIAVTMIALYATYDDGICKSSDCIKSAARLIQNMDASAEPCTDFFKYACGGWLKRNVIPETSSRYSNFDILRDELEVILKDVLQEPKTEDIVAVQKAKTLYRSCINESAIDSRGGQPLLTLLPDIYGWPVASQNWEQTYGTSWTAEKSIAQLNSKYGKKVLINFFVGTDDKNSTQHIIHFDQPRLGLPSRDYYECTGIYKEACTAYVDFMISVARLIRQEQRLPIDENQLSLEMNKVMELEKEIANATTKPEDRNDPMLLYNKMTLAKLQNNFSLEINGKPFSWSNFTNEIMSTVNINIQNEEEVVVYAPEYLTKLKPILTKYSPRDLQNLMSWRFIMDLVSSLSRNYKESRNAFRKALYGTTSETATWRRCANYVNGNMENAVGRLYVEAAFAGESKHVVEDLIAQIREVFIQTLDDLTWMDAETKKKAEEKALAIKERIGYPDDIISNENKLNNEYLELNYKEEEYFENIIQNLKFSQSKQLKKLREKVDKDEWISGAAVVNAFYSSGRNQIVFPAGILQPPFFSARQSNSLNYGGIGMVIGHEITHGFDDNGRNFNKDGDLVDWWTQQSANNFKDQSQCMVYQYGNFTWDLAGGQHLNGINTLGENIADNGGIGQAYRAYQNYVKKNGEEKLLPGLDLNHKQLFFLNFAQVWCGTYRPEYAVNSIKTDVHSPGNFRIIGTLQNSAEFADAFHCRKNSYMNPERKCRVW

Target: Neprilysin (Rattus norvegicus, UniProt P07861)

CC(C)CC(NC(=O)C(Cc1ccccc1)NP(C)(O)=S)C(=O)O (stereo unspecified)
Ki: 0.42 µM
